Laboratory results reported in patent US20240261425A1, “CONJUGATE AND THE PREPARING METHOD AND USE THEREOF” (Nanjing University, priority 2021, published 2024).

How the values were obtained:
sfGFP E124C [1] = target: T1, sfGFP E124C (Aequorea victoria, UniProt P42212, A206V/E124C/F64L/F99S/I171V/M153T/N105T/Q80R/S30R/S65T/V163A/Y145F/Y39N); parameters: His6 (HHHHHH after a GGGGLE linker) (C); details: sfGFP E124C (320 μM, 5 μL), Michael acceptor (6.4 μL, 5 mM), PBS pH 8, 37° C., 2 h
Description: Michael acceptors are common reagents for an addition reaction with a cysteine on an antibody. A new Michael acceptor was been investigated so that they may react efficiently and chemo-selectively with cysteine on antibodies. And no degradation occurred in the serum after the modification of the Michael acceptor with the antibody. Based on this, a candidate Michael acceptor was used as a reaction reagent with a green fluorescent protein which is regarded as a template protein to screen the Michael acceptor. Taking the reactivity, chemo-selectivity, and stability into consideration, it was screened out the Michael acceptor which was capable of reacting with a cysteine efficiently.

sfGFP E124C [2] = target: T1, sfGFP E124C; parameters: His6 (HHHHHH after a GGGGLE linker) (C); details: compared with alkenyl sulfonic acid amide, alkynyl phosphate, maleimide (5), carbonyl acrylic amide (4)

Row | SMILES | Addition number (sfGFP E124C [1]) | Conversion (%) (sfGFP E124C [1]) | reactivity (sfGFP E124C [2])
1 | CN1C(=O)C=CC1=O [MA 5, reference compound] | 0 | 0% | 
2 | O=S(=O)(F)/C=C/c1ccccc1 [Michael acceptor 1] | 2 | >99% | moderate
